# Measured values: patent EP3996814B1, “USE OF A HERBAL EXTRACT COMPRISING VERBASCOSIDE AND AUCUBIN FOR THE TREATMENT OF OSTEOARTHRITIS OF THE KNEE” (Labiotre S.r.l., priority 2019, dated 2021)
# What was measured:
# COX-2 mRNA = experiment: RT-PCR analysis of COX-2 mRNA expression in LPS-stimulated neutrophils; type: cell-based, human; settings: 5 µg/ml of LPS plus test substance 1%, 24 hours; untreated cells = 100 a.u.
# COX-1 mRNA = experiment: RT-PCR analysis of COX-1 mRNA expression in LPS-stimulated neutrophils; type: cell-based, human; settings: 5 µg/ml of LPS plus test substance 1%, 24 hours; untreated cells = 100 a.u.
smiles,measurement,setting,value
Cc1ccc(-c2cc(C(F)(F)F)nn2-c2ccc(S(N)(=O)=O)cc2)cc1 [Celecoxib],COX-2 mRNA levels,COX-2 mRNA,283 ± 37 a.u.
same,COX-1 mRNA levels,COX-1 mRNA,116 ± 4 a.u.
